Data as given in patent US12559733B2, “Optimization of type IV BRAF inhibitors for the treatment of melanoma” (UNIVERSITY OF SOUTH CAROLINA, priority 2020, dated 2026).

Test: Parallel artificial membrane permeability assay (PAMPA)
Format: in vitro ADME
Conditions: phospholipid and dodecane artificial membrane, mass spectroscopy
Description: A parallel artificial membrane permeability assay (PAMPA) was carried out using phospholipid and dodecane as the artificial membrane.

Substance: 65 (KR; MOD_RES (2)..(2) N-methylated arginine) [compound 65]
- passive permeability: no detectable trace of passive permeability
